Experimental findings from PubChem BioAssay AID1529 (NMMLSC, 2009) are described below.

The chains behind the UniProt entries cited, without tags or fusion partners.
UniProt Q99759, whole entry: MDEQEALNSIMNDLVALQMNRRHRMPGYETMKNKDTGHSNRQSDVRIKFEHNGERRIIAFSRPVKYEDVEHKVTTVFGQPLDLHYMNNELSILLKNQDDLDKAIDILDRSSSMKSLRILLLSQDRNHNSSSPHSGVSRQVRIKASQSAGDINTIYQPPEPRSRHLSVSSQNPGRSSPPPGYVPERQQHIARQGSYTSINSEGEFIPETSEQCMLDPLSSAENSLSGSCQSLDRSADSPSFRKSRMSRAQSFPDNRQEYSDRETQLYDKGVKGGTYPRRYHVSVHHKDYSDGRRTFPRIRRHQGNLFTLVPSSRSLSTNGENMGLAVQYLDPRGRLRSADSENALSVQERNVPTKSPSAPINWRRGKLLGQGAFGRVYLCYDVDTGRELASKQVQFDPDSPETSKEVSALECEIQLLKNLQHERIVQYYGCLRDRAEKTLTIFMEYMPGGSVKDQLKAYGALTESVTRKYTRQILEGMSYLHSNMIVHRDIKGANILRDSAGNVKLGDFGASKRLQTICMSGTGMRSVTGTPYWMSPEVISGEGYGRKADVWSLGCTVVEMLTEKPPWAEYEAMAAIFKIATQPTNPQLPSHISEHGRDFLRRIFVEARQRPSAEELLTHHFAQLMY

The list shows a part of the results, in another mix than the full data. Active and inactive are the calls of the source.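 How the source made its calls: active means binding response more than 3 SD above or below the average of its plate-row segment, actives on both sides; inconclusive means wells at one plate position flagged as instrument error; inactive means the rest.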

This experiment deals with Mitogen-activated protein kinase kinase kinase 3 (Homo sapiens) (UniProt Q99759). Kind of experiment: modulators of MEKK3-MEK5 PB1 binding, primary screen, biochemical, wildtype MEKK3, multiplex bead flow cytometry, Alexa488-MEK5 (AID 1529).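 Further: Alexa488 bead fluorescence after subtracting the streptavidin-only scavenger bead signal.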 The note with it: bead-based flow cytometry, Alexa488-MEK5 binding to MEKK3; at 10 µM; actives lie on both sides; 0 = blocked by unlabeled MEK5, 100 = vehicle. On the technique in general: Flow cytometry measures light scatter and fluorescence of single cells or particles in a stream.
On to `COc1ccc(OP(C)(=O)Nc2ccc(Br)cc2)cc1` (stereo not given), for which the binding response (% of control) is inactive: 96%. With `CP(=O)(Oc1ccccc1)N1CCOC1=O` (stereo not given) the figure was inactive: 95%; with `CCc1ccc(OP(C)(=O)Nc2cccnc2)cc1` (stereo not given), inactive: 88%; with `COc1ccccc1OP(C)(=O)Nc1c(C)n(C)n(-c2ccccc2)c1=O` (stereo not given), inactive: 109%. On to `O=C(OCCCN1CCCC1)C(O)(c1ccccc1)C1CCCCC1` (stereo not given), for which the binding response (% of control) is inactive: 94%. In the case of `CP(=O)(OC12CC3CC(CC(C3)C1)C2)OC12CC3CC(CC(C3)C1)C2` it was inactive: 101%; in that of `CCOC(=O)c1ccc(NP(C)(=O)Oc2ccc(Cl)cc2)cc1` (stereo not given), inactive: 100%; in that of `Cc1nc2ccc3ccccc3c2o1.O=[N+]([O-])c1cc([N+](=O)[O-])c(O)c([N+](=O)[O-])c1`, inactive: 95%.

In the case of `CP(=O)(OCCOc1ccccc1)OCCOc1ccccc1`, the binding response (% of control) is inactive: 110%. In the case of `CP(=O)(Nc1ccc(Cl)cc1Cl)Oc1ccccc1` (stereo not given) it was inactive: 95%. Take `Cc1cc(C)cc(OP(C)(=O)Nc2cccc(C(F)(F)F)c2)c1` (stereo not given): the binding response (% of control) was inactive: 101%. Regarding `COc1ccc(OP(C)(=O)Nc2ccccc2Br)cc1` (stereo not given), the binding response (% of control) was inactive: 101%. In the case of `COc1ccccc1OP(C)(=O)Nc1ccc(C)c(C)c1` (stereo not given) it was inactive: 97%; in that of `Cc1c(NP(C)(=O)Oc2ccc(C(C)C)cc2)c(=O)n(-c2ccccc2)n1C` (stereo not given), inactive: 109%; in that of `CCc1ccc(OP(C)(=O)O)cc1`, inactive: 106%.

Turning to `CP(=O)(Nc1ccccn1)Oc1ccccc1` (stereo not given), the binding response (% of control) was inactive: 102%. Take `COc1ccccc1OP(C)(=O)Nc1ccc(C)cc1C` (stereo not given): the binding response (% of control) is inactive: 105%. Turning to `COc1ccccc1OP(C)(=O)Nc1ccc(Br)cc1` (stereo not given), the binding response (% of control) was inactive: 95%. In the case of `CN(C)CCOC(=O)C(O)(c1ccccc1)C1CCCC1` (stereo not given) it was inactive: 105%; in that of `COc1ccc(OP(C)(=O)Nc2ccccn2)cc1` (stereo not given), inactive: 103%.
